Data on one substance can be found in patent US20130302888A1, “CELL CULTURE METHOD AND SYSTEM FOR ESTABLISHING AN IN VITRO MODEL OF THE INTESTINAL BARRIER” (GATTEFOSSE SAS, priority 2011, published 2013).

Data set [1] relates to Caco-2 monolayer.
The test system of data set [2] is HT29-MTX monolayer.

Consider rhodamine 123 [Rho123], for which the Papp is given as 19 10^−6 cm/s in data set [1] and 3 10^−6 cm/s in data set [2].
